# Assay results taken from PubChem BioAssay AID463115 (University of Pittsburgh Molecular Library Screening Center, 2010).
# The chains behind the UniProt entries cited, without tags or fusion partners. Residues count along the entry.
# UniProt P09958, 108-714 limits assumed: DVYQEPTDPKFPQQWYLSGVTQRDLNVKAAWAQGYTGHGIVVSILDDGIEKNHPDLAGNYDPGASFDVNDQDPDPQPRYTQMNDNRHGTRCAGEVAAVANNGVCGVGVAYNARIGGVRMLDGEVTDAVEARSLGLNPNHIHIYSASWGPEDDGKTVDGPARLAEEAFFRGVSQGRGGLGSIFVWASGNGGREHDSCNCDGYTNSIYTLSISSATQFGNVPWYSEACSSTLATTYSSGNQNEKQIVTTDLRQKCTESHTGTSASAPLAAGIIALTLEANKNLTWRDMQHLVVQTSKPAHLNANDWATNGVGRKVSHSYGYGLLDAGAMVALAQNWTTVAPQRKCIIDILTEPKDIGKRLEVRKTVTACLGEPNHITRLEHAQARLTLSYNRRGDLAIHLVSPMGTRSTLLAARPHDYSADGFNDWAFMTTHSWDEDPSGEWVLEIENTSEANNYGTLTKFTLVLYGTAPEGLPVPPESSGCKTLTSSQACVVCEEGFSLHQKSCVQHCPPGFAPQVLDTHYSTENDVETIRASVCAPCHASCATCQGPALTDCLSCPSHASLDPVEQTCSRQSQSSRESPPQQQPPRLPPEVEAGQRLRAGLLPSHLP
# The list shows a part of the results, in another mix than the full data. The source made the active and inactive calls. Rule as the data show it: active = inhibition above about 25%; inactive = the rest.
# Target: Furin (Homo sapiens) (UniProt P09958)
# Assay: furin protease activity blockers – biochemical, fluorescence intensity, primary screen (AID 463115)
# Details: purified furin, fluorogenic substrate cleavage, stronger effect = higher value; at 30 µM unless noted
row,SMILES,inhibition
1,CP(=O)(Nc1ccccn1)Oc1ccc(Cl)cc1 (configuration not stated),inactive: -19.5% [at 20 µM]
2,COc1ccc(OP(C)(=O)Nc2ccccc2Br)cc1 (configuration not stated),inactive: -14.8%
